Experimental findings from US6605424B1, “Method of detecting inhibitors of agonist-specific desensitization” (Duke University, priority 1989, dated 2003) are described below.

Test [1] addresses T1, βAR kinase (Bos taurus, UniProt P21146).
T1 construct: βAR kinase was purified from bovine cerebral cortex; from tissue; host or cells: bovine cerebral cortex
T1 sequence (P21146 1-689): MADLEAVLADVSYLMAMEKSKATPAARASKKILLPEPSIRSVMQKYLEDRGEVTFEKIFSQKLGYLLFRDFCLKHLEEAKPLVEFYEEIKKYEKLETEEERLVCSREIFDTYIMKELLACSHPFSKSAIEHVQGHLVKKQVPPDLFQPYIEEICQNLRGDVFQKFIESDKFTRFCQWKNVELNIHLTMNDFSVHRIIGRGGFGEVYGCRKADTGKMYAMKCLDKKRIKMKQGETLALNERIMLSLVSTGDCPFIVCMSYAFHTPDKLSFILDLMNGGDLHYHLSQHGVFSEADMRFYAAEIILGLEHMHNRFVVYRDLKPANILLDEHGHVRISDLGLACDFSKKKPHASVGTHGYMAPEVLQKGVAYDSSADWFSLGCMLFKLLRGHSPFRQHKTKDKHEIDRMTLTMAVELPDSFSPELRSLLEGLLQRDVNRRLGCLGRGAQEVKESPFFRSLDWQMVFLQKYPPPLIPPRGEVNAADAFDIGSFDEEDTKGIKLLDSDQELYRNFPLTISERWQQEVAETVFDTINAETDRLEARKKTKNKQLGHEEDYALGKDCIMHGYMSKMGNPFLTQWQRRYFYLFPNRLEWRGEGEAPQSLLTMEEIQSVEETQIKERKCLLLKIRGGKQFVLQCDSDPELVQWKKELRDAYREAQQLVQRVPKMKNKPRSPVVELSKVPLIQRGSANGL
Briefly: Inhibition of β2AR phosphorylation by βAR kinase by synthetic peptides (Example III). The following applies: hamster β2AR peptides; ND = no significant inhibition at ˜500 μM. It counts as biochemical, bovine. The procedure:
FIG. 13. Inhibition of β2AR phosphorylation by synthetic peptides. Reconstituted β2AR (˜0.4 pmol) was incubated for 30 min at 30° with purified βAR kinase (˜30 ng) in the presence of 50 mM Tris-HCl, pH 7.5, 2 mM EDTA, 10 mM NaCl, 5 mM MgCl2, 5 mM sodium phosphate, 50 μM (−)-isoproterenol and 0.10 mM [γ^32P]ATP (2.0 cpm/fmol). Synthetic β2AR peptides were varied from 0 to 1 mM and included CI (Δ), CII (▴), CIII-2 (◯) and CT-1 (●). Reactions were stopped by the addition of […]. ^32P-labeled receptor was determined by cutting and counting the dried gel following autoradiography.
The β2-adrenergic receptor from hamster lung was purified to apparent homogeneity by sequential affinity and high performance liquid chromatography as described (Benovic et al (1984) Biochemistry 23:4510-4518). The purified receptor was reinserted into phosphatidylcholine vesicles as previously described (Cerione et al (1983) Nature 306:562-566). The protein-lipid pellets were resuspended in 20 mM Tris-HCl, pH 7.2, 2 mM EDTA and used as a substrate for the βAR kinase.
βAR kinase was purified from bovine cerebral cortex by modification of a previously described procedure (Benovic et al (1987) J. Biol. Chem. 262:9026-9032). Briefly, 250 g of bovine cortex was homogenized and the resulting high speed supernatant fraction was precipitated with 13-26% ammonium sulfate. This material was initially chromatographed on an Ultrogel AcA34 column equilibrated with 5 mM Tris-HCl, pH 7.5, 2 mM EDTA, 5 μg/ml leupeptin, 5 μg/ml pepstatin, 15 μg/ml benzamidine, 0.2 mM phenylmethyl sulfonyl fluoride (buffer A). The peak activity was diluted 1:1 with buffer A containing 0.02% triton X-100 and applied to a DEAE Sephacel column. Elution was accomplished with a 0-80 mM NaCl gradient in buffer A containing triton X-100. The peak activity was then applied directly to a CM Fractogel column and eluted with a 0-100 mM NaCl gradient in buffer A containing triton X-100. The purified kinase was stored at 4° C. […]

Test [2] concerns the target protein kinase A (Homo sapiens, UniProt P17612). Put plainly: Peptides as substrates for protein kinase A. It is filed as biochemical.

“And” between values parts separate entries of the source, which are not always exact repeats. Equal values may be shown once.

For orientation: IC50 means the point on the concentration scale where inhibition reaches its midpoint. The low end stands for higher potency, the high end for lower potency. As to `CC(C)C[C@H](NC(=O)CNC(=O)[C@H](Cc1c[nH]cn1)NC(=O)CNC(=O)[C@H](CO)NC(=O)[C@H](CCCNC(=N)N)NC(=O)CNC(=O)[C@H](CC(=O)O)NC(=O)[C@H](CCC(N)=O)NC(=O)[C@H](CCC(=O)O)NC(=O)[C@@H](N)C(C)C)C(=O)N[C@@H](CCCNC(=N)N)C(=O)N[C@@H](CCCNC(=N)N)C(=O)N[C@@H](CO)C(=O)N[C@@H](CO)C(=O)N[C@@H](CCCCN)C(=O)N[C@@H](Cc1ccccc1)C(=O)N[C@@H](CS)C(=O)N[C@@H](CC(C)C)C(=O)N[C@@H](CCCCN)C(=O)N[C@@H](CCC(=O)O)C(=O)O` [CIII-2 (248-268)], in test [1], the concentration for half-maximal inhibition (IC50) was 70 to 320 µM and 208 µM. Besides, the “substrate for protein kinase A” value in test [2] is on record as “serve as substrates for protein kinase A”.

In the case of `CC[C@H](C)[C@H](NC(=O)[C@H](CCCCN)NC(=O)[C@H](CCC(N)=O)NC(=O)[C@H](CC(C)C)NC(=O)[C@H](CCC(N)=O)NC(=O)[C@H](CCCNC(=N)N)NC(=O)[C@H](CCCCN)NC(=O)[C@H](C)NC(=O)[C@@H](NC(=O)[C@H](CCC(N)=O)NC(=O)[C@H](Cc1ccccc1)NC(=O)[C@@H](NC(=O)[C@H](CCCNC(=N)N)NC(=O)[C@H](CO)NC(=O)[C@@H](N)Cc1ccc(O)cc1)C(C)C)C(C)C)C(=O)N[C@@H](CC(=O)O)C(=O)N[C@@H](CCCCN)C(=O)N[C@@H](CO)C(=O)N[C@@H](CCC(=O)O)C(=O)NCC(=O)N[C@@H](CCCNC(=N)N)C(=O)N[C@@H](Cc1ccccc1)C(=O)N[C@@H](Cc1c[nH]cn1)C(=O)N[C@@H](CO)C(=O)N1CCC[C@H]1C(=O)O` [CIII-1 (219-243)], the 50% inhibitory concentration (IC50) in test [1] is 70 to 320 µM and 76 µM.

Take `CC(C)C[C@H](NC(=O)[C@H](CO)NC(=O)[C@H](CCC(N)=O)NC(=O)[C@H](Cc1ccc(O)cc1)NC(=O)[C@H](CCCCN)NC(=O)[C@H](Cc1ccccc1)NC(=O)[C@@H]1CCCN1C(=O)[C@@H](N)CO)C(=O)N[C@@H](CC(C)C)C(=O)N[C@H](C(=O)N[C@@H](CCCCN)C(=O)N[C@@H](CC(N)=O)C(=O)N[C@@H](CCCCN)C(=O)N[C@@H](C)C(=O)N[C@@H](CCCNC(=N)N)C(=O)O)[C@@H](C)O` [CII (137-151)]: the IC50 in test [1] is 70 to 320 µM and 240 µM.
